The entries are a selection whose mix differs from that of the whole data set. Calls of active or inactive are those of the source. Rule as the data show it: active = inhibition above about 16% (passing the limit was not always enough); inconclusive = no clear call, values can overlap the other calls; inactive = below that.

This experiment concerns UDP-N-acetylbacillosamine N-acetyltransferase PglD (Campylobacter jejuni). In words: blockers of PglD enzyme activity – biochemical, DTNB colorimetric, single point, primary screen (AID 602405). The following applies: purified PglD enzyme, DTNB colorimetric CoA detection; at 12.5 µM; hits give high values.
A word on the inhibition: it is the drop in the measured response relative to a control, in per cent. Take `CC(=O)N1C2C3N(C(C)=O)C1C1N(C(C)=O)C(C(N1C(C)=O)N3C(C)=O)N2C(C)=O`: the inhibition was inactive: -2.02%.

`O=[N+]([O-])c1cccc2n[nH]nc12`: the inhibition was inactive: -2.38%.

For `CCc1nc2c(n1)c1c(non1O)c1c2no[n+]1[O-]`, the inhibition was inactive: -2.26%.

As for `COc1ccc(C2=NCC(CBr)S2)cc1` (stereo not drawn), the inhibition is inactive: -4.19%.

For the molecule `CC(C)c1nc(Nc2ccccc2)n(P(=O)(N(C)C)N(C)C)n1`, the inhibition was inactive: -7.18%.

With `c1cc(-c2nn[nH]n2)ccc1-c1nn[nH]n1`, the inhibition is inactive: -1.16%.

For the molecule `CC1CCN(C(=O)Oc2c(Cl)cc(Cl)c3cccnc23)CC1`, the inhibition was inactive: 5.33%.

As to `Nc1ccc([As](=O)(O)c2ccc(N)cc2)cc1`, the inhibition is inactive: 5.34%.

As for `C[N+]1=C2C=CC=CC=C2SC12C([N+](=O)[O-])=CC([N+](=O)[O-])=C[C-]2[N+](=O)[O-]` (stereo not drawn), the inhibition is inactive: -2.04%.

In the case of `O=C(Nc1cc([As](=O)(O)O)ccc1O)c1ccccc1`, the inhibition is inactive: 1.42%.

For the molecule `O=P1(N(CCCl)CCCl)OCCCS1` (stereo not drawn), the inhibition is inactive: 0.339%.

Turning to `O=[N+]([O-])c1cccc(NC2=NCC(CBr)S2)c1` (stereo not drawn), the inhibition is inactive: -3.3%.

Turning to `O=C(O)CNc1ccc([As](=O)(O)O)cc1`, the inhibition is inactive: -7.53%.

For the molecule `CCOP(=O)(Nc1ccccc1)OCC`, the inhibition was inactive: -2.99%.

Turning to `CN(C(=O)Cc1ccc(Cl)c(Cl)c1)[C@H]1CCCC[C@@H]1N1CCCC1`, the inhibition was inactive: -1.2%.

As to `O=C(O)c1ccccc1[As](=O)(O)O`, the inhibition is inactive: 1.15%.

On to `CC(=O)Nc1ccc([As](=O)(O)O)cc1`, for which the inhibition was inactive: 8.86%.

`CCCC1OP(N)(=O)OCC1CC` (stereo not drawn): the inhibition was inactive: 3.98%.

As to `CN(C)P(=O)(N(C)C)n1c(Nc2ccccc2)nnc1-c1ccccc1`, the inhibition is inactive: 3.57%.

With `Nc1cccc2ccc([As](=O)(O)O)cc12`, the inhibition is inactive: 4.69%.

`Cc1ccc(OP(=O)(Nc2nccs2)Oc2ccc(C)cc2)cc1`: the inhibition is inactive: 4.34%.

For `Clc1ccc(Cl)c(NC2=NCC(CBr)S2)c1` (stereo not drawn), the inhibition was inactive: -3.27%.

For the molecule `CN1CCCC(OC(=O)C(c2ccccc2)c2ccccc2)C1` (stereo not drawn), the inhibition is inactive: 8.99%.

Consider `CN(C(=O)Cc1ccc(Cl)c(Cl)c1)[C@H]1CCCC[C@H]1N1CCCC1`, for which the inhibition was inactive: -1.48%.

As for `Cc1ccc(N/C(=N/P(=O)(N2CCOCC2)N2CCOCC2)N2CCOCC2)cc1`, the inhibition was inactive: 12%.

Turning to `CC(C)CC(=O)NC(Sc1ccc(Cl)cc1)C(Cl)(Cl)Cl` (stereo not drawn), the inhibition was inactive: -2.11%.

`Oc1ccccc1CNc1ccccn1`: the inhibition is inactive: 3.88%.

For the molecule `O=C(NC(Sc1ccncn1)C(Cl)(Cl)Cl)c1ccccc1` (stereo not drawn), the inhibition was inactive: 0.07%.

Turning to `CCc1cc(O)c([N+](=O)[O-])c(C)c1[N+](=O)[O-]`, the inhibition is inactive: -1.79%.

As for `O=P1(Nc2nc3ccc(Cl)cc3s2)COc2ccccc2O1` (stereo not drawn), the inhibition was inactive: -1.06%.

Regarding `CC(=O)Nc1ccc([As](=O)(O)O)c(O)c1`, the inhibition is inactive: -4.75%.

In the case of `CC(=O)Nc1ccc(Oc2c([N+](=O)[O-])cc([N+](=O)[O-])cc2[N+](=O)[O-])cc1`, the inhibition is inactive: -3.08%.

For `CC(=O)c1ccc(N2CC2c2ccncc2)cc1` (stereo not drawn), the inhibition is inactive: 3.74%.

Turning to `Cc1ccccc1CN(C)C(=O)COC(=O)C(O)(c1ccccc1)c1ccccc1`, the inhibition is inactive: -3.64%.

Turning to `C[C@@H]1C=CCP(=O)(Oc2ccccc2)O1` (stereo partly drawn), the inhibition was inactive: -4.6%.

`C[C@H]1OP(=O)(Oc2ccccc2)C[C@@H]2O[C@@H]21` (stereo partly drawn): the inhibition is inactive: 2.61%.

For the molecule `O=P1(N(CCCl)CCCl)OCCC2CCCCN21` (stereo not drawn), the inhibition was inactive: 7.38%.

For the molecule `CCNC(=S)/N=C(\N)N[N+](=O)[O-]`, the inhibition was inactive: 3.39%.

In the case of `Cc1ccc(NP(=O)(Oc2cccc(C)c2)Oc2cccc(C)c2)nc1`, the inhibition is inactive: 4.01%.

With `CC(NC(=O)COC(=O)C(O)(c1ccccc1)c1ccccc1)c1ccccc1` (stereo not drawn), the inhibition is inactive: -5.99%.

With `CN(C)C(=O)Oc1noc2ccccc12`, the inhibition was inactive: 1.31%.

Regarding `COC(=O)c1cc2c(s1)N=C(c1ccccc1)N(C)P2(=O)N1CCOCC1` (stereo not drawn), the inhibition was inactive: 3.19%.

As for `CC(=O)NC(SC(=S)N(CC(C)C)CC(C)C)C(Cl)(Cl)Cl` (stereo not drawn), the inhibition is inactive: -4.34%.

As to `O=C(OC1CN2CCC1CC2)c1ccccc1` (stereo not drawn), the inhibition is inactive: -3.87%.

For `CCC(=O)N1C2C3N(C(=O)CC)C1C1N(C(=O)CC)C(C(N1C(=O)CC)N3C(=O)CC)N2C(=O)CC`, the inhibition is inactive: -5.64%.

On to `O=P(Nc1nc2ccccc2s1)(c1ccccc1)c1ccccc1`, for which the inhibition is inactive: -2.12%.

Consider `C[C@H]1OP(=O)(Oc2ccccc2)[C@H](O)[C@H](O)[C@H]1N=[N+]=[N-]` (stereo partly drawn), for which the inhibition is inactive: 1.24%.

`Nc1ccc(CCCCOc2ccccc2)cc1`: the inhibition was inactive: -3.81%.

Consider `COc1ccc(N)c([N+](=O)[O-])c1[N+](=O)[O-]`, for which the inhibition was inactive: -1.11%.

As for `CN(C)C1(CNC(=O)c2ccc(Cl)c(S(N)(=O)=O)c2)CCCCC1`, the inhibition was inactive: -5.65%.

Take `O=P(Nc1ccccn1)(c1ccc(Br)cc1)c1ccc(Br)cc1`: the inhibition was inactive: 7.44%.

With `Nc1ccc([As](=O)(O)c2ccc([N+](=O)[O-])cc2)cc1`, the inhibition was inactive: 1.6%.

Regarding `O=C(OC1CN2CCC1CC2)c1cccc(Cl)c1` (stereo not drawn), the inhibition was inactive: -6.71%.

Take `CC(=O)NC(SC(=S)N(C)C)C(Cl)(Cl)Cl` (stereo not drawn): the inhibition was inactive: -2.67%.

In the case of `O=[N+]([O-])c1ccc(O)c(/C=N/Nc2ccc([N+](=O)[O-])cc2[N+](=O)[O-])c1`, the inhibition is inactive: 3.89%.

As for `O=[As](O)(c1ccccc1)c1ccc(O)cc1`, the inhibition is inactive: -0.196%.

`c1nnnn1CCn1cnnn1`: the inhibition is inactive: 0.156%.

With `O=P(Nc1nccs1)(c1ccccc1)c1ccccc1`, the inhibition is inactive: 4.57%.

The values are drawn from PubChem BioAssay AID602405 (Broad Institute, 2012).
